The list shows a part of the results, in another mix than the full data. Calls of active or inactive are those of the source.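 Rule for the calls: active = percent response below a set limit in fluorescence channel 1 and below 50% in channel 8; inactive = the rest.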
Experiment: fluorescent artefacts in FAP flow readout – cell-based, FAP fluorogen, flow cytometry, cherry pick 1, artefact control for beta2AR agonist internalization project, confirmation (AID 588765);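 note: low percent response here flags compound autofluorescence meaning a false positive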
Conditions: Am2.2 cells, fluorescence counterscreen, at 10 µM, stronger effect = lower value
For `CN(C)C(=O)c1cc([N+](=O)[O-])cc2c1-c1c(cc([N+](=O)[O-])cc1[N+](=O)[O-])C2=O`, the percent response FL1 was inactive: 95.8%.
